Measurements reported in PubChem BioAssay (NCI).
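Dose response: 5 concentrations. Exposure: 48 h. Format: 96-well plates. Endpoint: linear interpolation; highest concentration if not reached. Here, GI50 denotes the concentration required for 50% inhibition of growth. TGI marks complete inhibition of growth.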

What was measured:
Experiment in all cases: DTP human tumour cell line panel, 48 h
HS 578T breast = tested on: HS 578T breast
SW-620 colon = tested on: SW-620 colon
SK-MEL-28 melanoma = tested on: SK-MEL-28 melanoma
RPMI-8226 leukemia = tested on: RPMI-8226 leukemia
MCF7 breast = tested on: MCF7 breast
UACC-62 melanoma = tested on: UACC-62 melanoma
M14 melanoma = tested on: M14 melanoma
SK-MEL-5 melanoma = tested on: SK-MEL-5 melanoma
OVCAR-3 ovarian = tested on: OVCAR-3 ovarian
CCRF-CEM leukemia = tested on: CCRF-CEM leukemia
NCI-H460 lung = tested on: NCI-H460 lung
EKVX NSCLC = tested on: EKVX NSCLC
SK-MEL-2 melanoma = tested on: SK-MEL-2 melanoma
UO-31 renal = tested on: UO-31 renal
MALME-3M melanoma = tested on: MALME-3M melanoma
HT29 colon = tested on: HT29 colon
MDA-MB-435 = tested on: MDA-MB-435
NCI-H226 lung = tested on: NCI-H226 lung
786-0 renal = tested on: 786-0 renal
KM12 colon = tested on: KM12 colon
NCI-H23 lung = tested on: NCI-H23 lung
PC-3 prostate = tested on: PC-3 prostate
HL-60(TB) leukemia = tested on: HL-60(TB) leukemia
TK-10 renal = tested on: TK-10 renal
SK-OV-3 ovarian = tested on: SK-OV-3 ovarian
HCT-15 colon = tested on: HCT-15 colon
HCC-2998 colon = tested on: HCC-2998 colon
MDA-MB-231 breast = tested on: MDA-MB-231 breast
SN12C renal = tested on: SN12C renal
HCT-116 colon = tested on: HCT-116 colon
OVCAR-5 ovarian = tested on: OVCAR-5 ovarian
A549 NSCLC = tested on: A549 NSCLC
SF-268 CNS = tested on: SF-268 CNS
ACHN renal = tested on: ACHN renal
SF-295 CNS = tested on: SF-295 CNS
HOP-62 NSCLC = tested on: HOP-62 NSCLC
SR leukemia = tested on: SR leukemia
LOX IMVI melanoma = tested on: LOX IMVI melanoma
NCI-H522 lung = tested on: NCI-H522 lung
T-47D breast = tested on: T-47D breast
NCI/ADR-RES ovarian = tested on: NCI/ADR-RES ovarian
OVCAR-4 ovarian = tested on: OVCAR-4 ovarian
MDA-N = tested on: MDA-N
OVCAR-8 ovarian = tested on: OVCAR-8 ovarian
SNB-19 CNS = tested on: SNB-19 CNS
COLO 205 colon = tested on: COLO 205 colon
IGROV1 ovarian = tested on: IGROV1 ovarian
RXF 393 renal = tested on: RXF 393 renal
SNB-75 CNS = tested on: SNB-75 CNS
DU-145 prostate = tested on: DU-145 prostate
SF-539 CNS = tested on: SF-539 CNS
A498 renal = tested on: A498 renal
HOP-92 NSCLC = tested on: HOP-92 NSCLC
U251 CNS = tested on: U251 CNS

## O=[N+]([O-])C1([N+](=O)[O-])CCCc2nonc21
HS 578T breast
  GI50: 13.8 µM
  TGI: 72 µM
SW-620 colon
  GI50: 35 µM
  TGI: > 100 µM
SK-MEL-28 melanoma
  GI50: > 100 µM
  TGI: > 100 µM
RPMI-8226 leukemia
  GI50: 26.4 µM
  TGI: > 100 µM
MCF7 breast
  GI50: 33.9 µM
  TGI: > 100 µM
UACC-62 melanoma
  GI50: 39.1 µM
  TGI: > 100 µM
M14 melanoma
  GI50: 16.3 µM
  TGI: > 100 µM
SK-MEL-5 melanoma
  GI50: 40.8 µM
  TGI: > 100 µM
OVCAR-3 ovarian
  GI50: 54.5 µM
  TGI: > 100 µM
CCRF-CEM leukemia
  GI50: 26.6 µM
  TGI: 78.1 µM
NCI-H460 lung
  GI50: 36.2 µM
  TGI: > 100 µM
EKVX NSCLC
  GI50: > 100 µM
  TGI: > 100 µM
SK-MEL-2 melanoma
  GI50: 47.3 µM
  TGI: > 100 µM
UO-31 renal
  GI50: 21.4 µM
  TGI: > 100 µM
MALME-3M melanoma
  GI50: 30.6 µM
  TGI: > 100 µM
HT29 colon
  GI50: 30.4 µM
  TGI: > 100 µM
MDA-MB-435
  GI50: 42 µM
  TGI: > 100 µM
NCI-H226 lung
  GI50: > 100 µM
  TGI: > 100 µM
786-0 renal
  GI50: 45.5 µM
  TGI: > 100 µM
KM12 colon
  GI50: 33 µM
  TGI: > 100 µM
NCI-H23 lung
  GI50: 20.6 µM
  TGI: 43.9 µM
PC-3 prostate
  GI50: 33.9 µM
  TGI: > 100 µM
HL-60(TB) leukemia
  TGI: 35.6 µM
TK-10 renal
  GI50: > 100 µM
  TGI: > 100 µM
SK-OV-3 ovarian
  GI50: > 100 µM
  TGI: > 100 µM
HCT-15 colon
  GI50: 28.8 µM
  TGI: > 100 µM
HCC-2998 colon
  GI50: 43.1 µM
  TGI: > 100 µM
MDA-MB-231 breast
  GI50: 37.2 µM
  TGI: > 100 µM
SN12C renal
  GI50: 37.1 µM
  TGI: > 100 µM
HCT-116 colon
  GI50: 30.5 µM
  TGI: > 100 µM
OVCAR-5 ovarian
  GI50: > 100 µM
  TGI: > 100 µM
A549 NSCLC
  GI50: 37 µM
  TGI: > 100 µM
SF-268 CNS
  GI50: 69.8 µM
  TGI: > 100 µM
ACHN renal
  GI50: > 100 µM
  TGI: > 100 µM
SF-295 CNS
  GI50: > 100 µM
  TGI: > 100 µM
HOP-62 NSCLC
  GI50: 43.3 µM
  TGI: > 100 µM
SR leukemia
  GI50: 26.5 µM
  TGI: 92.8 µM
LOX IMVI melanoma
  GI50: 17.2 µM
  TGI: 46.1 µM
NCI-H522 lung
  GI50: 16.5 µM
  TGI: 31 µM
T-47D breast
  GI50: 21 µM
  TGI: 62.2 µM
NCI/ADR-RES ovarian
  GI50: 36.6 µM
  TGI: > 100 µM
OVCAR-4 ovarian
  GI50: 38 µM
  TGI: > 100 µM
MDA-N
  GI50: 4.73 µM
  TGI: 46.5 µM
OVCAR-8 ovarian
  GI50: 33.4 µM
  TGI: > 100 µM
SNB-19 CNS
  GI50: > 100 µM
  TGI: > 100 µM
COLO 205 colon
  GI50: 22.6 µM
  TGI: 43.4 µM
IGROV1 ovarian
  GI50: 17.6 µM
  TGI: 37 µM
RXF 393 renal
  GI50: 40.7 µM
  TGI: > 100 µM
SNB-75 CNS
  GI50: 59.3 µM
  TGI: > 100 µM
DU-145 prostate
  GI50: > 100 µM
  TGI: > 100 µM
SF-539 CNS
  GI50: 39.8 µM
  TGI: > 100 µM
A498 renal
  GI50: 27.7 µM
  TGI: > 100 µM
HOP-92 NSCLC
  GI50: 44.1 µM
  TGI: 77.2 µM
U251 CNS
  GI50: > 100 µM
  TGI: > 100 µM
